This note sets out measurements from ChEMBL document CHEMBL1130557, “Synthesis and biological evaluation of 14-alkoxymorphinans. 14.1 14-ethoxy-5-methyl substituted indolomorphinans with opioid receptor selectivity” (Bioorg Med Chem Lett, 1997).

Amino acid sequences for entries named in this document (tags omitted).
UniProt P41143, whole entry, looked up: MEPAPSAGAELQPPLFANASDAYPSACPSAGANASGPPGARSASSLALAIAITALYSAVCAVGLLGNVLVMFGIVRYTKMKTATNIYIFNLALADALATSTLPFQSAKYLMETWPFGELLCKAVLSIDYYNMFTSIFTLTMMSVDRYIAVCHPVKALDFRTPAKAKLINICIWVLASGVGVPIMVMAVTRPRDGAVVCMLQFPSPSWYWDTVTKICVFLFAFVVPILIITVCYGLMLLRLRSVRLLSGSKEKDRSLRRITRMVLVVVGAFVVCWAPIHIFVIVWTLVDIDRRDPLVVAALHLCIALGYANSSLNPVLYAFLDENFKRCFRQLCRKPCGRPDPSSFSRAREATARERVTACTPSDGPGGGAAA
UniProt P35372, whole entry, looked up: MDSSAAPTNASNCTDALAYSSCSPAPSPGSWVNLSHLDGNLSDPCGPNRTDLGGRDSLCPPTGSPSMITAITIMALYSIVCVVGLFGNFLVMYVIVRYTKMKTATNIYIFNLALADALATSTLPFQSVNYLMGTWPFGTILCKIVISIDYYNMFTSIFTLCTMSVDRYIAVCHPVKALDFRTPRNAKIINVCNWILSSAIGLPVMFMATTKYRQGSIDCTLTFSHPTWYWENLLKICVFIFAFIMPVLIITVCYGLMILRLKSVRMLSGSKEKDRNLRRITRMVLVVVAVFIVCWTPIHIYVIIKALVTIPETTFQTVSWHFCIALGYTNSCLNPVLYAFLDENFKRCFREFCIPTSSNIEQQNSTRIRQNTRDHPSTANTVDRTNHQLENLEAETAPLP

The target of assay [1] is T1, Opioid receptors; mu & delta (Homo sapiens) (UniProt P41143+P35372). The assay is described as follows: (§1) Selectivity for mu opioid receptor over delta opioid receptor. It counts as protein assay.
Assay [2] addresses T1, Opioid receptors; mu & delta (Homo sapiens). Described as §1. It counts as protein assay. The source holds these as a separate data set.

For `CCO[C@@]12Cc3c([nH]c4ccccc34)[C@]3(C)Oc4c(O)ccc5c4[C@@]31CCN(CC1CC1)C2C5`, the Ratio in assay [1] was 50; in assay [2] it was 102.
